# Experimental data from the supplement of paper PMC7224384.
# Experiments:
# [1] = test system: MDA-MB-453; test: drug sensitivity score (DSS), single agent (DSS (weighted AUC score)); higher = more sensitive (stronger viability decrease); extreme values may be limits of the assay; settings: BLU9931 0 nM; 72 h
# Procedure, shortened: (§1)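 Drug sensitivity scores come from a weighted area under a four-parameter logistic fit to percent viability, normalised per plate to control wells. Viability was based on cellular ATP read with CellTiterGlo 2.0 after 72 h at 37 °C, 5% CO2. Each 384-well plate carried FIMM Oncology set compounds in singlicate at five 10-fold dilutions, with 2000 MDA-MB-453 cells per well in medium with or without an FGFR4 inhibitor at 100 nM final.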
# [2] = test system: MDA-MB-453; test: drug sensitivity score (DSS), in combination with BLU9931 (DSS (weighted AUC score)); higher = more sensitive (stronger viability decrease); extreme values may be limits of the assay; settings: BLU9931 100 nM; 72 h
# Procedure, shortened: as §1
smiles,measurement,setting,value
NCc1ccc(OCCCc2sc(-c3ccc4c(c3)/C(=N/Nc3nc5ccccc5s3)CCC4)nc2C(=O)O)cc1 [WEHI-539],drug sensitivity score,[1],0
same,drug sensitivity score,[2],0
